The values below are quoted from earlier work in US20080275009A1, “ORAL ADMINISTRATION OF N-(2-CHLORO-6-METHYLPHENYL)-2-[[6-[4-(2-HYDROXYETHYL)-1-PIPERAZINYL]-2-METHYL-4-PYRIMIDINYL]AMINO]-1,3-THIAZOLE-5-CARBOXAMIDE AND SALTS THEREOF” (Bristol-Myers Squibb Company, priority 2005, published 2008).

The chains behind the UniProt entries cited, without tags or fusion partners. Residues count along the entry.
UniProt P10721, 26-976: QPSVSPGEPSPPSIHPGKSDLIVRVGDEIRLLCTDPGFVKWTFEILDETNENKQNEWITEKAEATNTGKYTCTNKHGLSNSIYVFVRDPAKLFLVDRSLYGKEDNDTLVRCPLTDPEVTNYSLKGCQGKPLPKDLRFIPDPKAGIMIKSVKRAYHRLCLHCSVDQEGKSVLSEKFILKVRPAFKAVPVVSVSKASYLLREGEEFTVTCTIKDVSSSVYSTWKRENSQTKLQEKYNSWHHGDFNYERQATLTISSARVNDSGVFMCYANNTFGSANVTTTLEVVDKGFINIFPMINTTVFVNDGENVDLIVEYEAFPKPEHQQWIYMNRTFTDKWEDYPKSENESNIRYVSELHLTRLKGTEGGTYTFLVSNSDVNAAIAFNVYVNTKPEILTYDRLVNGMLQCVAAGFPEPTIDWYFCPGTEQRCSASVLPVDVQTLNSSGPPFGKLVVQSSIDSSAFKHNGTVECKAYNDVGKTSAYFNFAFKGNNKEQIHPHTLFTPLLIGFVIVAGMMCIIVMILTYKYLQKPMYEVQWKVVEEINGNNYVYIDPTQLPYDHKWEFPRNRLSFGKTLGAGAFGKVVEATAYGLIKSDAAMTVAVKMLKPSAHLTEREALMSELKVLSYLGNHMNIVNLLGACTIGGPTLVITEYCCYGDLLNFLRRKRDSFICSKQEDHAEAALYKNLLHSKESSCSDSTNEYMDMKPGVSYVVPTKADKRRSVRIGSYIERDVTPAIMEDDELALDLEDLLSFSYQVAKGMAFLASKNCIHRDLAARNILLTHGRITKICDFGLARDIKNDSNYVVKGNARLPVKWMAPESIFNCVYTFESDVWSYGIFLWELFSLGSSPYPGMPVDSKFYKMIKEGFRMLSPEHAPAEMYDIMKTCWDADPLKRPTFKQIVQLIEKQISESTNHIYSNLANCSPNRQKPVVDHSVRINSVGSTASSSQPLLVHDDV

The data set deals with c-KIT (Homo sapiens, UniProt P10721). As to conditions: general statement, method or value not given; cited from earlier work.

Consider `Cc1nc(Nc2ncc(C(=O)Nc3c(C)cccc3Cl)s2)cc(N2CCN(CCO)CC2)n1` [Compound I, N-(2-chloro-6-methylphenyl)-2-((6-(4-(2-hydroxyethyl)-1-piperazinyl)-2-methyl-4-pyrimidinyl)amino)-1,3-thiazole-5-carboxamide], for which the “inhibition of c-KIT” value is given as “potent inhibitor”.
